The record followed here is BindingDB's records for doi:10.1038/nchembio.81 (The Medical School, Newcastle University, 2008).

For this experiment, the target named is T1, Beta-mannosidase (Bacteroides thetaiotaomicron, UniProt Q8AAK6).
T1 sequence (Q8AAK6 whole entry): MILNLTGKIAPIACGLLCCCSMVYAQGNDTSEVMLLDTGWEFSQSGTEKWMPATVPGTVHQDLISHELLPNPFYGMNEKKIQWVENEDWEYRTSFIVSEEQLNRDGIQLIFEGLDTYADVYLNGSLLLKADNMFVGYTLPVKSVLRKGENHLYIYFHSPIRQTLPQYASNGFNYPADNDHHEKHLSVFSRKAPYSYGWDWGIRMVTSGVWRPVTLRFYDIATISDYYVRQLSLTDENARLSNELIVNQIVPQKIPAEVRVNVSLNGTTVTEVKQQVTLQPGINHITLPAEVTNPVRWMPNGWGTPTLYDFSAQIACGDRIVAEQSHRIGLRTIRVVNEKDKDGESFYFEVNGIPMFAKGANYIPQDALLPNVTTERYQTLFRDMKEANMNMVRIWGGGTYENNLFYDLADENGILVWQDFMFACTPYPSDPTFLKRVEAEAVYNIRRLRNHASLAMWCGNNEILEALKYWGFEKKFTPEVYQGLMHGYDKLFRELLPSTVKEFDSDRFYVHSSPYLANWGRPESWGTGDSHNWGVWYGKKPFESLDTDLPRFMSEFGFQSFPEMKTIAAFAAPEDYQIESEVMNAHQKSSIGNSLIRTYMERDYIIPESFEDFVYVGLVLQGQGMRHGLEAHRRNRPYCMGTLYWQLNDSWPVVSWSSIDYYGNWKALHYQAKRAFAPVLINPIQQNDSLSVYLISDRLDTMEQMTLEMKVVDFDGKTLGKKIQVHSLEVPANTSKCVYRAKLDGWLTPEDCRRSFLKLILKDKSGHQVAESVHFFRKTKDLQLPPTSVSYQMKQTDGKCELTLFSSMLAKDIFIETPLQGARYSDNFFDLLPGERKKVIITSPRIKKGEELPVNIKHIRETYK
Description: Putative mannosidase assay using wild-type protein Btman2A. Enzyme inhibition assay. To be noted: pH 5.6; 37 °C.

A word on the Ki: it is the equilibrium dissociation constant of an inhibitor or competing ligand from its target. Lower therefore signals a stronger hold on the target. `OC[C@H]1C[C@@H]2[C@@H](O)[C@@H](O)[C@@]1(O)CN2Cc1ccccc1` [(1R,4R,5R,7R,8R)-2-Benzyl-5-(hydroxymethyl)-2-azabicyclo[2.2.2]octane-4,7,8-triol, 4a] yielded a Ki of 13 µM. This counts as double-digit micromolar.
